Literature values, collected in patent publication US20100168443A1, “Ethoid-Containing Compounds, Methods for Preparing Ethoid-Containing Compounds, and Methods of Use” (UNIVERSITY OF VIRGINIA PATENT FOUNDATION, priority 2006, published 2010).

Chains of the proteins cited; added tags and fusions are not shown. Lines headed by an entry give the natural chain unless they say otherwise; changes in a name come on top.
UniProt P28336: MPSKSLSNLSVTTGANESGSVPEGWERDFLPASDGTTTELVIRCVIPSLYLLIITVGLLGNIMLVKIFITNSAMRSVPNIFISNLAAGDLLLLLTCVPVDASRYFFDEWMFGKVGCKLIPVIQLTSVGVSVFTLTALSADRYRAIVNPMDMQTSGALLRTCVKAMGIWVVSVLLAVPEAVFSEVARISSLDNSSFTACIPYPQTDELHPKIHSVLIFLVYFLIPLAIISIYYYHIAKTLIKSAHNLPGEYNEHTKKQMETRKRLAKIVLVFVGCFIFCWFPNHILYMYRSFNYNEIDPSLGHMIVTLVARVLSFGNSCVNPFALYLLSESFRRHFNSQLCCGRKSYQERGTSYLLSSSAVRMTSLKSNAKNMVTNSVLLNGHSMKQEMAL

Target: T1, Bombesin BB1 HUMAN receptor (Homo sapiens, UniProt P28336)
T1 construct: host or cells: CHO
Details: radioligand; Human recombinant (CHO cells); cited from earlier work

Substance: [125I] (Tyr4)-Bombesin
- Kd: 0.045 nM
